Measured values taken from patent US7528153B2 (dated 2009).

Legend:
[1] = target: lysosomal alfa-glucosidase (Homo sapiens, UniProt P10253); assay: In vitro inhibition of lysosomal alfa-glucosidase (4-MU substrate, purified enzyme from spleen); format: biochemical
[2] = target: intestinal sucrase (Homo sapiens, UniProt P14410); assay: In vitro inhibition of intestinal sucrase; format: biochemical

Structure (SMILES)	IC50 [1] [µM]	IC50 [2] [µM]
OC[C@@H]1[C@@H](O)[C@H](O)[C@@H](O)CN1CCCCCOCC12CC3CC(CC(C3)C1)C2	0.1	4.5
OC[C@@H]1[C@H](O)[C@H](O)[C@H](O)CN1CCCCCOCC12CC3CC(CC(C3)C1)C2 [N-(adamantane-1-yl-methoxypentyl)-L-ido-deoxynojirimycin]	11	> 100
